± gives the standard deviation of the averaged measurements.
Experiments:
Assay in all cases: apparent dissociation constant pKd app (kinobead competition) (-log10(M)); higher = stronger binding
AAK1 = AAK1 (UniProt Q2M2I8)
CDKL5 = molecular target: T1, CDKL5 (UniProt O76039)
T1 sequence (whole entry): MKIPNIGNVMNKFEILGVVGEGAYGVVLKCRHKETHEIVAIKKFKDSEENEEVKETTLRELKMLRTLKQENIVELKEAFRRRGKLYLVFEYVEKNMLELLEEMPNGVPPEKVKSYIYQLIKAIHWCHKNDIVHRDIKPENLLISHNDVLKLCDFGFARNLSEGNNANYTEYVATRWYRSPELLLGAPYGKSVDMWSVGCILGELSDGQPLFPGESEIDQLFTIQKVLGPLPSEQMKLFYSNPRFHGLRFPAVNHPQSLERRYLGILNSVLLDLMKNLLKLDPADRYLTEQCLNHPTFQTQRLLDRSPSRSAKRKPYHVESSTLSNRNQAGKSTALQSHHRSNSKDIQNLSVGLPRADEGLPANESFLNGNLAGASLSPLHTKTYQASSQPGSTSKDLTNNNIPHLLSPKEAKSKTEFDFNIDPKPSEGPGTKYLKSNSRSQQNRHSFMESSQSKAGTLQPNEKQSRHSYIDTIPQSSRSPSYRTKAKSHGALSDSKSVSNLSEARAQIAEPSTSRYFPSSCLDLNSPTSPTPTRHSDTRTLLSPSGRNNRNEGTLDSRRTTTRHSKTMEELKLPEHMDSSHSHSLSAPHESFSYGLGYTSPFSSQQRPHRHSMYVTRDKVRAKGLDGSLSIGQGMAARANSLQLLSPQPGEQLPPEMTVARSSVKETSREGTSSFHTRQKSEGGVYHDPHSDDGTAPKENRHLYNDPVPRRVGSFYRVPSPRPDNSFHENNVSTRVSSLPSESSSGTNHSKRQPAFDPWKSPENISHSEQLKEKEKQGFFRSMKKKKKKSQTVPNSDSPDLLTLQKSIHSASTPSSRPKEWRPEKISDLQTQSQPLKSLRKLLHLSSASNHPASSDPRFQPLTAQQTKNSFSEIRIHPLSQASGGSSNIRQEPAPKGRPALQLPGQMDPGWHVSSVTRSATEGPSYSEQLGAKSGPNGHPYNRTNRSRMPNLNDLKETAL

By UniProt entry, the sequences of proteins in these tests, tags left out. Where a name states a change or a piece, a line headed by the entry shows the natural chain unless it says otherwise.
UniProt Q2M2I8: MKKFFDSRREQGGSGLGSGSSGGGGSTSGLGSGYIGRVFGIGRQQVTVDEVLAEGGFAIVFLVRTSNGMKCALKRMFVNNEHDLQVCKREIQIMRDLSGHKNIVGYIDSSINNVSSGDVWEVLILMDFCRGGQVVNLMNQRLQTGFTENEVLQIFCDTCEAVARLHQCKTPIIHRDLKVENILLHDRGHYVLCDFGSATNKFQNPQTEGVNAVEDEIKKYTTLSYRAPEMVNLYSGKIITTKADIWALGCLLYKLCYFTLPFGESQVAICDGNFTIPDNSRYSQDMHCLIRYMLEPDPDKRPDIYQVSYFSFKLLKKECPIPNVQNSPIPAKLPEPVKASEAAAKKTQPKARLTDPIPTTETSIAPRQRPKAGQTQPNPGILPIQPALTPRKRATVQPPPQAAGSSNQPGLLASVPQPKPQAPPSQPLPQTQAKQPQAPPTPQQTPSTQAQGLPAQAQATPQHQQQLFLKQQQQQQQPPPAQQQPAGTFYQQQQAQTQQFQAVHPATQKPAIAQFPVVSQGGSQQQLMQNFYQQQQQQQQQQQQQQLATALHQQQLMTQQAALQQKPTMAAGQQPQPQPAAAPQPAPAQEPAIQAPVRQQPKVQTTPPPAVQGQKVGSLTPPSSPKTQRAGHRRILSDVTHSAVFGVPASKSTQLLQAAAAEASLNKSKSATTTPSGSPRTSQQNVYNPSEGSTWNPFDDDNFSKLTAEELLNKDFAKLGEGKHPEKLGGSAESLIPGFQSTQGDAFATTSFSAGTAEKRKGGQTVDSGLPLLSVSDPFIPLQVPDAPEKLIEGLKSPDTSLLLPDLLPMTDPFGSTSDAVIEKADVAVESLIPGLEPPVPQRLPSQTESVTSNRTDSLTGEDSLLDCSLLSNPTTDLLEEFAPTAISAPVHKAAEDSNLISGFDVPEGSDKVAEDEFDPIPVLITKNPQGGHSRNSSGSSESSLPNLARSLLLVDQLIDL
UniProt O14578, whole entry: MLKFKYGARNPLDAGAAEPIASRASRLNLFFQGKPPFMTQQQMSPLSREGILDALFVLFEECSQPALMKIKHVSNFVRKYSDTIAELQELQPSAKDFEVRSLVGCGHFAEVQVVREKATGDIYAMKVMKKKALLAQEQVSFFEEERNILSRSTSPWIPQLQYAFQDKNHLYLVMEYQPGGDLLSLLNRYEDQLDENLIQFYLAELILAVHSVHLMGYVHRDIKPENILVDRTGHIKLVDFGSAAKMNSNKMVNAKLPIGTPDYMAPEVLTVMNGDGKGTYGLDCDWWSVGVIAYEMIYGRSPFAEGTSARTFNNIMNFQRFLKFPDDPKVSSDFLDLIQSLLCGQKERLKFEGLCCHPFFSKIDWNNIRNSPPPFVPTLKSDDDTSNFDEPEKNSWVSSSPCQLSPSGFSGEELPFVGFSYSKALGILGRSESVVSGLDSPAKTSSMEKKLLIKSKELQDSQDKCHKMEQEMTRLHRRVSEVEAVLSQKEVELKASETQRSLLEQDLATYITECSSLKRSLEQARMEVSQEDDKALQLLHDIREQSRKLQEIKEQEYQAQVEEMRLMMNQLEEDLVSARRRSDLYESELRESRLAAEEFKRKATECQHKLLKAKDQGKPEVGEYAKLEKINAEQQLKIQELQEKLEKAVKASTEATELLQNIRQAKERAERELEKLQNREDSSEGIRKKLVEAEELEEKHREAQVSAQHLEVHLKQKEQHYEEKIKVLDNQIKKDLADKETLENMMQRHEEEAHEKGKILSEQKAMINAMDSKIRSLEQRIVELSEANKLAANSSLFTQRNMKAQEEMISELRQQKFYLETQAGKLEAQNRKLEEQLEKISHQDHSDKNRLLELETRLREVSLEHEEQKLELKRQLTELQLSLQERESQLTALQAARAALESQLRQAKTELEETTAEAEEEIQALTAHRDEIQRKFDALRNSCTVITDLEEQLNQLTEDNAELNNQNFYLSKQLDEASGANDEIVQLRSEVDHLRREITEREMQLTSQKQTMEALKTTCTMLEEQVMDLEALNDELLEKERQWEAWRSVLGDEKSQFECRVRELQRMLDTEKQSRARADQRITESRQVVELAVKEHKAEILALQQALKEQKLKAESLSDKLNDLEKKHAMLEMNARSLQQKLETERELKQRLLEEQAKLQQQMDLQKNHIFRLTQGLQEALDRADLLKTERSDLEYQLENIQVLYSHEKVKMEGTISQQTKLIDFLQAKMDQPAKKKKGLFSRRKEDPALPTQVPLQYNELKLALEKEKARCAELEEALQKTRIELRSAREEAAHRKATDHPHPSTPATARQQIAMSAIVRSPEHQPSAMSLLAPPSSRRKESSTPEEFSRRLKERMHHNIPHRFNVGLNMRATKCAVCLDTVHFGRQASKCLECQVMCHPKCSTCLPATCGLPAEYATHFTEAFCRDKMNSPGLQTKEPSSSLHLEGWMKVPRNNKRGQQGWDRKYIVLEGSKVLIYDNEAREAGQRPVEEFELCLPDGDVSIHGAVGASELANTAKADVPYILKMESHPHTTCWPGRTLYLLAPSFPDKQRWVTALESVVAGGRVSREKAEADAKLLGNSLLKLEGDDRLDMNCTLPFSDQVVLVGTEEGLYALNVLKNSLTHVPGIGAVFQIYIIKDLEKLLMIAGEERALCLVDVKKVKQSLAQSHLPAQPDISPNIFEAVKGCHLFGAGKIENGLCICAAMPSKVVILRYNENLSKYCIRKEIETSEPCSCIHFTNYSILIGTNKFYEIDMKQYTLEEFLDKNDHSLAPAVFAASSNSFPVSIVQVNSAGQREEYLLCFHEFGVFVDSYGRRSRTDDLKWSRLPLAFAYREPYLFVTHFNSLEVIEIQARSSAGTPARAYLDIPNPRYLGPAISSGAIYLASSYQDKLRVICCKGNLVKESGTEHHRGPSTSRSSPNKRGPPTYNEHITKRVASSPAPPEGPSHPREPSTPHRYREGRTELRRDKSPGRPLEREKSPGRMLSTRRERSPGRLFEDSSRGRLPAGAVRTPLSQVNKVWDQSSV
UniProt P29317, whole entry: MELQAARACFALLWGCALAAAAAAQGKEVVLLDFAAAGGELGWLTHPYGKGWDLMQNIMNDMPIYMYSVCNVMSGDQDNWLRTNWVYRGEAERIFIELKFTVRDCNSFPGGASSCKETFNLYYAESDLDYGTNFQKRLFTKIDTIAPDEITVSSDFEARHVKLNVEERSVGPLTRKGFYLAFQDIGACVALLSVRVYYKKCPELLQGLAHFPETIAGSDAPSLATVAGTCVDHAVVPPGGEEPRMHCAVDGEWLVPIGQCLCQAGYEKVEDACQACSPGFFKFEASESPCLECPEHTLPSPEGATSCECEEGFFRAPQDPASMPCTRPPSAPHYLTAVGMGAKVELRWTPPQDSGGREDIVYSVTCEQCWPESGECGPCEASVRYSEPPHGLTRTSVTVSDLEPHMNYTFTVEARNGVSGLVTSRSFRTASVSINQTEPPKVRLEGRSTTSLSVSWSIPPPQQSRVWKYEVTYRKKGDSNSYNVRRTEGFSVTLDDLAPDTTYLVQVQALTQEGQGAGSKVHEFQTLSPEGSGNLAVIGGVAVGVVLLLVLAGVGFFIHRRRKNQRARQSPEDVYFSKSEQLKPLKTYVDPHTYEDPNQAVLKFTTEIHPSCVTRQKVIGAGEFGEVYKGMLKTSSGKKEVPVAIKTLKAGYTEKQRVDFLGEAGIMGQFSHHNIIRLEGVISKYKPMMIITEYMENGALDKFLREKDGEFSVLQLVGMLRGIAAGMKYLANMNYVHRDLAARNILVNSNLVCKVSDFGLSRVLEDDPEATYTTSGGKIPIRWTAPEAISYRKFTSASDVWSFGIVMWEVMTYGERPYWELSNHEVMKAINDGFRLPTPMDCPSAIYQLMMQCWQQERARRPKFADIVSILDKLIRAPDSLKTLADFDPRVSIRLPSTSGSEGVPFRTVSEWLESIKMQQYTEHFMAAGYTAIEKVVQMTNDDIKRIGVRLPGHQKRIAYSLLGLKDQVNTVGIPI
UniProt P22455, whole entry, looked up: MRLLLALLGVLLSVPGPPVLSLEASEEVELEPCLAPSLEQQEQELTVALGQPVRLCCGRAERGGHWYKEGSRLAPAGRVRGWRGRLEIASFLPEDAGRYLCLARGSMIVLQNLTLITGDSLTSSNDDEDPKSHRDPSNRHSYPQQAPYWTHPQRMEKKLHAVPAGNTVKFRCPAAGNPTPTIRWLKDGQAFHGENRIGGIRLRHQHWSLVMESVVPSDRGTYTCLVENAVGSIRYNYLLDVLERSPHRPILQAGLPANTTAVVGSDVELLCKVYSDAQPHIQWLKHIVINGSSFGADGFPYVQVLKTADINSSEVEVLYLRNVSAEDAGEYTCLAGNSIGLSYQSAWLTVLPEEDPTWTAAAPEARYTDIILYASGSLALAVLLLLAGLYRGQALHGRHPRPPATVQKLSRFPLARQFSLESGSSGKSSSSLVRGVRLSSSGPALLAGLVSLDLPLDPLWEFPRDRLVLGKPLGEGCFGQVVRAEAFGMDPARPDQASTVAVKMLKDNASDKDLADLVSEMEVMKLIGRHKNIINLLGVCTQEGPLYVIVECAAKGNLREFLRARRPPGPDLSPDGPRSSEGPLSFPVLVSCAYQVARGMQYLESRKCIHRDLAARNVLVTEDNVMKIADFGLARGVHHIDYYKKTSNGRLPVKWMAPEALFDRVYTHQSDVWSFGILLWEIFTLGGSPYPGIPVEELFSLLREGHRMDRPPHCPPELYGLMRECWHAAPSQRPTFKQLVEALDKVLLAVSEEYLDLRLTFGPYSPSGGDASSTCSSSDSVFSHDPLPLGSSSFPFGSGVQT
UniProt Q13464: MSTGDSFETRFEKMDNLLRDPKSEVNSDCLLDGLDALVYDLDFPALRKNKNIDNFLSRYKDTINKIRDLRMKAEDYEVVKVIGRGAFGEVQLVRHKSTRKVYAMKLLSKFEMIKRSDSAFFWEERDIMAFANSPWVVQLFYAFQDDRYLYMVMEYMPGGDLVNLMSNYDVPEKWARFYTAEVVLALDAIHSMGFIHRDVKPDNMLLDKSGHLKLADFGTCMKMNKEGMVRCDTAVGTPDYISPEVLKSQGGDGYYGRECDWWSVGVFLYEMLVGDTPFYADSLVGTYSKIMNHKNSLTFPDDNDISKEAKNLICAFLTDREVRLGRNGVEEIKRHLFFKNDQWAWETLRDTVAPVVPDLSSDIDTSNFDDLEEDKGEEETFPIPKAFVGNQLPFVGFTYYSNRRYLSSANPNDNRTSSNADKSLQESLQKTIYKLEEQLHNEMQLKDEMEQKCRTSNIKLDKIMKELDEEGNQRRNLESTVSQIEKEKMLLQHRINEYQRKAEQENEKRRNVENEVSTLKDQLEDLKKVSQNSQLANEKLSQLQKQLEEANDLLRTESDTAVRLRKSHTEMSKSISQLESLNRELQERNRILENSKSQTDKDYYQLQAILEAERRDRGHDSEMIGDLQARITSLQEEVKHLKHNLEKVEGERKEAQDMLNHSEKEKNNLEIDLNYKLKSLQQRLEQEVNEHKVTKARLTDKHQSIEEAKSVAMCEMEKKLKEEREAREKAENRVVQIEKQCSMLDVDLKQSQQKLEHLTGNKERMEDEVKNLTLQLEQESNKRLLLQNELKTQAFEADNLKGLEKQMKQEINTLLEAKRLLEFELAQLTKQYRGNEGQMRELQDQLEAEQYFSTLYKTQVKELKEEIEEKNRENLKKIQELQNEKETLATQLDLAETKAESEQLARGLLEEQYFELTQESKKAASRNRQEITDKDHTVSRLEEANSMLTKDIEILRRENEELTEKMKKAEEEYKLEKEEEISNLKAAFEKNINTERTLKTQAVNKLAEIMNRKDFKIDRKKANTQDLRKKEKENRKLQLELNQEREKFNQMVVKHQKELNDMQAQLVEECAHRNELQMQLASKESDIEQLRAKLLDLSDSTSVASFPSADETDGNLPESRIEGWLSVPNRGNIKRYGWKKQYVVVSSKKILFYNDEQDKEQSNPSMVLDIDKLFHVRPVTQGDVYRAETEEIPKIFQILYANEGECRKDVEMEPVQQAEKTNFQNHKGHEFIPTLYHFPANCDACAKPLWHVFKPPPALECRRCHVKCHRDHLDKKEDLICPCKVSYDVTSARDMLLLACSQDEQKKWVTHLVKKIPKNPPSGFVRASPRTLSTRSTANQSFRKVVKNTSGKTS

CIT = CIT (UniProt O14578)
EPHA2 = EPHA2 (UniProt P29317)
FGFR4 = FGFR4 (UniProt P22455)
IRAK1 = IRAK1 (UniProt P51617)
MAPK7 = MAPK7 (UniProt Q13164)
MERTK = molecular target: T2, MERTK (UniProt Q12866)
T2 sequence (whole entry): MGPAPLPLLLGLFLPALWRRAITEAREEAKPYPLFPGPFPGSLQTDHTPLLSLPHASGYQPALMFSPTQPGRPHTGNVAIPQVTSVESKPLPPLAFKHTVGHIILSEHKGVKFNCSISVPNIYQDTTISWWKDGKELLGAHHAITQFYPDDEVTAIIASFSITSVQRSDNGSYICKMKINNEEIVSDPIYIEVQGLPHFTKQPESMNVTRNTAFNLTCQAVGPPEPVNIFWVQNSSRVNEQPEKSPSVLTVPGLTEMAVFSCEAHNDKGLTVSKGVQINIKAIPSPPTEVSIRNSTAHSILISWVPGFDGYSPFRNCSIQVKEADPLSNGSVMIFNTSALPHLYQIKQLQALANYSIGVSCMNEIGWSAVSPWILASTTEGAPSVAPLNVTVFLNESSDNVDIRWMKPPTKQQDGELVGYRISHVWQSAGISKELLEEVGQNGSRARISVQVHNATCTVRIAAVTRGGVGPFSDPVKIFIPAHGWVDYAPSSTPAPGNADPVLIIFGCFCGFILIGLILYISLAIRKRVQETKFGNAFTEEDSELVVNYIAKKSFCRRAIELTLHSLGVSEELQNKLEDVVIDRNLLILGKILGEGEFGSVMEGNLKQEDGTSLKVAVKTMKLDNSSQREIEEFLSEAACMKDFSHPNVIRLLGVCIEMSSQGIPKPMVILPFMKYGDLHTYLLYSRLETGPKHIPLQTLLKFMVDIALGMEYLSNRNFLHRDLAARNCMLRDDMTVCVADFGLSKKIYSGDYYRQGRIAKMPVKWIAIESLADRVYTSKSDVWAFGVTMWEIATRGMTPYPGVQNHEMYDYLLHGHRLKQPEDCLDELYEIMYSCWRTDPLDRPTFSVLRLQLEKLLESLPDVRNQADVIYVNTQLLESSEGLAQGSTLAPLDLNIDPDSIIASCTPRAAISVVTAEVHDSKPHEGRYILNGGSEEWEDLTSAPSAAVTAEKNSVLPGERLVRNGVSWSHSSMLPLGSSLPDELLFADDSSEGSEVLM

ROCK1 = ROCK1 (UniProt Q13464)
STK3 = molecular target: T3, STK3 (UniProt Q13188)
T3 sequence (whole entry): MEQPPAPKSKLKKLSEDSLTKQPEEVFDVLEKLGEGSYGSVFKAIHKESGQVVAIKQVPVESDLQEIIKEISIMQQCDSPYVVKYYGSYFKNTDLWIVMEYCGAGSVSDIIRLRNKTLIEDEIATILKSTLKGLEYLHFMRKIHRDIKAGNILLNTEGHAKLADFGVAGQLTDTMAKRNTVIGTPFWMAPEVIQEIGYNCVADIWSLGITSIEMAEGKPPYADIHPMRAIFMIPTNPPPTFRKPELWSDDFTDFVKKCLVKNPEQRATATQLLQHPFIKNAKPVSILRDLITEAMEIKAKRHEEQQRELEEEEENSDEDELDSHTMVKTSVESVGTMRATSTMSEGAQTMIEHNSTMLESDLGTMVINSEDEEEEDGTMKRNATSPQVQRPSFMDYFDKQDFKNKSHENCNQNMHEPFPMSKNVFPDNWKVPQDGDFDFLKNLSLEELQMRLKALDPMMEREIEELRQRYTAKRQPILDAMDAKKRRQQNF

Row | Structure (SMILES) | apparent dissociation constant pKd app (-log10) (AAK1) | apparent dissociation constant pKd app (-log10) (CDKL5) | apparent dissociation constant pKd app (-log10) (CIT) | apparent dissociation constant pKd app (-log10) (EPHA2) | apparent dissociation constant pKd app (-log10) (FGFR4) | apparent dissociation constant pKd app (-log10) (IRAK1) | apparent dissociation constant pKd app (-log10) (MAPK7) | apparent dissociation constant pKd app (-log10) (MERTK) | apparent dissociation constant pKd app (-log10) (ROCK1) | apparent dissociation constant pKd app (-log10) (STK3)
1 | NC(=O)c1cccc2cn(-c3ccc([C@@H]4CCCNC4)cc3)nc12 [Niraparib] | < 4.8 | < 4.7 | 5.15 ± 0.071 | < 4.6 | < 4.5 | < 4.6 | < 4.6 | < 4.6 | < 4.5 | < 4.5
2 | O=C(c1cc(Cc2n[nH]c(=O)c3ccccc23)ccc1F)N1CCN(C(=O)C2CC2)CC1 [Olaparib] | < 4.8 | < 4.7 | < 4.5 | < 4.6 | < 4.5 | < 4.6 | < 4.6 | < 4.6 | < 4.5 | < 4.5
3 | Cn1ncnc1[C@H]1c2n[nH]c(=O)c3cc(F)cc(c23)N[C@@H]1c1ccc(F)cc1 [Talazoparib] | < 4.8 | < 4.7 | < 4.5 | < 4.6 | < 4.5 | < 4.6 | < 4.6 | < 4.6 | < 4.5 | < 4.5
